Measured values taken from paper PMC5605198, “MELK is not necessary for the proliferation of basal-like breast cancer cells” (eLife, 2017).
Read-outs that look alike come from different tables or passages of the source.

By UniProt entry, the sequences of proteins in these tests, tags left out. Where a name states a change or a piece, a line headed by the entry shows the natural chain unless it says otherwise.
UniProt Q14680: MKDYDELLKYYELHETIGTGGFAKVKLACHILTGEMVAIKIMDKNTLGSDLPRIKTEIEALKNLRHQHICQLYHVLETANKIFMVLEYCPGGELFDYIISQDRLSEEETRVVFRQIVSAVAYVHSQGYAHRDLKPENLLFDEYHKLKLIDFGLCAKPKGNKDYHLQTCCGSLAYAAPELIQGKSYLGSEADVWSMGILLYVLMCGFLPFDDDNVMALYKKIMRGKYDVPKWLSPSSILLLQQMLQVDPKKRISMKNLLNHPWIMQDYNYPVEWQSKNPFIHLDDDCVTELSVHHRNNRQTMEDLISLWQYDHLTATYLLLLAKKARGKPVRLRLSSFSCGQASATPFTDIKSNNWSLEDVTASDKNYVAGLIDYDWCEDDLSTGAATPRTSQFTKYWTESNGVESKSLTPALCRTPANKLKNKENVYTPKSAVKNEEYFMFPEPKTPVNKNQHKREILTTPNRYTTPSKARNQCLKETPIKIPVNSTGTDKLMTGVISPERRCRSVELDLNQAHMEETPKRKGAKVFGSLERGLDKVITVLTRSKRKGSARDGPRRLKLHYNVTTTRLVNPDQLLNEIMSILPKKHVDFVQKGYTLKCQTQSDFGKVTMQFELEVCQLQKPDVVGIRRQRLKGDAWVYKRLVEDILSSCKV

Target: MELK (Homo sapiens, UniProt Q14680)
Test: Z’-LYTE enzymatic assay
Format: biochemical

Q: Which results are given for `CC(=O)c1cnc2ccc(-c3cc(Cl)c(O)c(Cl)c3)nc2c1N[C@H]1CC[C@H](CN(C)C)CC1` [OTSSP167]?
A: IC50 (Z’-LYTE assay at [ATP]=apparent Km, read-out: Biochemical IC50 MELK): 0.5 nM; IC50 (measured by Z’LYTE biochemical assay, class symbols in Figure 2C, read-out: Potency (MELK)): < 1 nM; IC50 (note column of Table 3, read-out: Note: MELK IC50): 0.5 nM
